The target in this assay is T1, dDdS Aβ (1–10).
T1 chain: DAEFRHDSGY
Briefly: native MS; IM-MS of oligomers of one Aβ fragment alone; Aβ (1–10) and Aβ (1–16) 600 µM, 10 mM NH4OAc; oligomers of many sizes seen, a printed size is the largest one. To be noted: remark: other sources report otherwise.

B1: dDdS Aβ (1–10) (peptide)
peptide: DAEFRHDSGY
modifications: here or on the partner: D-aspartic acid and D-serine at the underlined Asp and Ser residues (D1, D7, S8 by the letters); D-aspartic acid and D-serine at the underlined Asp and Ser residues (D1, D7, S8 by the letters)
As for B1, the stoichiometry N (as a rule, a count of units in the complex or per binding partner) was found to be 12.

The values above are taken from publication PMC6834639.
